Source: ChEMBL document CHEMBL5518221, “Discovery and Optimization of Selective Brain-Penetrant EBP Inhibitors that Enhance Oligodendrocyte Formation” (J Med Chem, 2024)
Active and inactive are the calls of the source. No cut-off for these calls is given here.

Sequences of proteins named here, by UniProt entry; tags and fusion partners are left off. A change or cut given only in a name is not applied to a line headed by its entry.
UniProt Q15125: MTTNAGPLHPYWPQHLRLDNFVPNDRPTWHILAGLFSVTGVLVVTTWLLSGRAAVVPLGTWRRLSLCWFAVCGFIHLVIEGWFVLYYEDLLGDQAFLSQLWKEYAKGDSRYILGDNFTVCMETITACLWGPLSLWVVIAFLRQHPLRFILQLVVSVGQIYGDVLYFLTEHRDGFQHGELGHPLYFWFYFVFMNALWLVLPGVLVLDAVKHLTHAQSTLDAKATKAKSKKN

Columns and labels:
[1] = target: 3-beta-hydroxysteroid-Delta(8),Delta(7)-isomerase (Homo sapiens, UniProt Q15125); conditions: Oligocortical organoid, dose lower […], dose upper 1750.0 nM, time 30.0 day
[2] = Dissociation constant, pKa of compound
BCRP = experiment: in vitro; conditions: dog
MDR1 = experiment: in vitro; conditions: dog, MDCK-MDR1
in vitro = conditions: CD-1, mouse, pooled liver microsomes
[3] = Lipophilicity, logD of the compound at pH 7.4; conditions: buffer
[4] = target: T1, 3-beta-hydroxysteroid-Delta(8),Delta(7)-isomerase (Mus musculus, UniProt P70245); experiment: Inhibition of EBP in mouse Oligodendrocyte precursor cell assessed as zymostenol accumulation by GCMS analysis
T1 sequence (P70245 whole entry): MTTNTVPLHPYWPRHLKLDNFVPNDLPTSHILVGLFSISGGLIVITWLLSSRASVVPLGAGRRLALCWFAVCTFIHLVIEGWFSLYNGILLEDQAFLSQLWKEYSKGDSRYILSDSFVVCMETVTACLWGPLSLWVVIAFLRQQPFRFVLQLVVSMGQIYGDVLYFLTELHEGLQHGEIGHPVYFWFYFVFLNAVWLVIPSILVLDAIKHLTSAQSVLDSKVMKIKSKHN

Row | inhibition [1] | pKa [2] | Papp A→B (BCRP) | Papp A→B (MDR1) | CLhep predicted at 1 h, 1 µM (in vitro) | logD [3] | EC50 [4] | SMILES
1 | Active | – | – | – | – | – | – | CCN1C(=O)N(c2ccc(C3CC3)cc2)C(=O)C12CCN(CC1CCOCC1)CC2
2 | – | 8.3 | 16.2 ×10⁻⁶ cm/s | 18.3 ×10⁻⁶ cm/s | 47 mL/min/kg | 3.3 | 5 nM | CN1c2ccc(C(F)(F)F)cc2C(=O)C12CCN(CC1CCOCC1)CC2
